Antibody variant affinities, Ab-91 heavy chain, assay 2

From the AlphaSeq antibody data of Engelhart et al. 2022 (doi:10.1038/s41597-022-01779-4), copy in the FLAb collection.

Target peptide (SARS-CoV-2 spike, HR2 region): PDVDLGDISGINAS

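Phage display of a naive human antibody library on the peptide gave the parent. Variants in AAYL51 differ from the parent at up to three CDR positions; double and triple changes were sampled at random. In AlphaSeq, yeast of one mating type display the scFv and yeast of the other type display the target. Mating (16 h, 30 °C) was followed by selection of diploids and sequencing of their barcodes. Read counts were normalised to the haploid input and turned into Kd by a linear fit to BCL2-family pairs of known affinity, for each replicate. The assay was run in three technical replicates.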

Parent: Ab-91, a human scFv built as VL, the linker GGGGSGGGGSGGGGS, VH. Only the CDRs of the heavy chain vary.
VL: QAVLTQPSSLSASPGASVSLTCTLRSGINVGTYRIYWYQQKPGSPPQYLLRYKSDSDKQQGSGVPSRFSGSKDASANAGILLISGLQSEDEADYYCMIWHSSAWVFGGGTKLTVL
VH: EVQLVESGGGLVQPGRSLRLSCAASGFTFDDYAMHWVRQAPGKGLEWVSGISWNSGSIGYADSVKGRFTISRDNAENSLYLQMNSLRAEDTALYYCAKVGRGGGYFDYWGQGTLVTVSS

Sequences are complete VH domains.
The read-out is the apparent dissociation constant on a log10 scale (nM): the lower, the stronger.
The mean shown is taken over the replicates in which the pair was detected.
An entry "no signal" has no value in the source: the pair was not observed among the diploids in any replicate. This suggests poor binding but is not conclusive.
Entries are sorted by rising average, undetected variants last.

Variant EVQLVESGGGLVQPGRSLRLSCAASGFQFDDYAMHWVRQAPGKGLEWVSGISWNSGSWGYADSVKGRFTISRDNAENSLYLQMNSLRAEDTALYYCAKVGRGGGYFDNWGQGTLVTVSS showed 2.60 (3 of 3 replicates).
Variant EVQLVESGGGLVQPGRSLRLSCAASKFTFDDYAMHWVRQAPGKGLEWVSGISWNSGSIGNADSVKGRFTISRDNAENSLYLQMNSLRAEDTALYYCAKVGRGTGYFDYWGQGTLVTVSS showed 3.82 (1 of 3 replicates).
Variant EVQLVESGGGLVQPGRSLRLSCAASGFTFDDRAMHWVRQAPGKGLEWVSGISWNSGYIGYADSVKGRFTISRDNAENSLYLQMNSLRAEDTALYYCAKVGRGRGYFDYWGQGTLVTVSS showed 4.49 (2 of 3 replicates).
Variant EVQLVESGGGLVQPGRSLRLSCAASGFAFDDYAMHWVRQAPGKGLEWVSGIFWNCGSIGYADSVKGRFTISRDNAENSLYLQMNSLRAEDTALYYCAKVGRGGGYFDYWGQGTLVTVSS showed 4.67 (1 of 3 replicates).
Variant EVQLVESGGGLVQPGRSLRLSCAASGFTFDDYAMHWVRQAPGKGLEWVSGISWNSGSIGYADSVKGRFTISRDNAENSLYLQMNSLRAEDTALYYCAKVTRGGHYFDYWGQGTLVTVSS showed 4.75 (2 of 3 replicates).
Variant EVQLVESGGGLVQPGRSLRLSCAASGFTFDDYAMHWVRQAPGKGLEWVSGWSWNSGSIGYADSVQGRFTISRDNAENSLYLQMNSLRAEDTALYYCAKVGRGPGYFDYWGQGTLVTVSS showed 4.88 (1 of 3 replicates).
Variant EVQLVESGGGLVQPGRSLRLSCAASGFTFDDYAMHWVRQAPGKGLEWVSGISWCSGWIGYADSVKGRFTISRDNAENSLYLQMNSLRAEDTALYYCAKVGRGGGIFDYWGQGTLVTVSS showed 5.11 (1 of 3 replicates).
Variant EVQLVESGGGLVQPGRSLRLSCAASGFTFDDYAMHWVRQAPGKGLEWVSGIPWNSGSNGYASSVKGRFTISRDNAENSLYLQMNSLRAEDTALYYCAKVGRGGGYFDYWGQGTLVTVSS showed 5.22 (3 of 3 replicates).
Variant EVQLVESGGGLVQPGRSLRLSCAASGLTFDDYAPHWVRQAPGKGLEWVSGISWNSGSIGYADSVMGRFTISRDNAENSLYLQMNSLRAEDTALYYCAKVGRGGGYFDYWGQGTLVTVSS showed no signal (0 of 3 replicates).
Variant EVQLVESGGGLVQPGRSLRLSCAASGFTFDFYAMHWVRQAPGKGLEWVSGISWHSGSIGYADSVVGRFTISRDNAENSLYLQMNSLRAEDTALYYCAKVGRGGGYFDYWGQGTLVTVSS showed no signal (0 of 3 replicates).
Variant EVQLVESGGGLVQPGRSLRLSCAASGFTFDDYAMHWVRQAPGKGLEWVSGIPWNSGNIGYADSVDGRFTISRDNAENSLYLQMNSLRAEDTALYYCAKVGRGGGYFDYWGQGTLVTVSS showed no signal (0 of 3 replicates).
Variant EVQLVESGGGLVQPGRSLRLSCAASGFTFDDYAVHWVRQAPGKGLEWVSAISWNSGSIGYADSVKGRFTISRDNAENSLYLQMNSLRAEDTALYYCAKVGRPGGYFDYWGQGTLVTVSS showed no signal (0 of 3 replicates).
Variant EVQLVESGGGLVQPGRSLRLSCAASGFKFDDYAMHWVRQAPGKGLEWVSGLSWNSGSIGYADSVKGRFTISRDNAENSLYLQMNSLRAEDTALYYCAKVGRRGGYFDYWGQGTLVTVSS showed no signal (0 of 3 replicates).
Variant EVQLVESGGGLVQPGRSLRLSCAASGFTFDDYAMHWVRQAPGKGLEWVSGISWNSGSIGYADSVKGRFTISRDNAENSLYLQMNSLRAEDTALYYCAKVGRGKGVFDGWGQGTLVTVSS showed no signal (0 of 3 replicates).
Variant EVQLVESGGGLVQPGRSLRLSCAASGFTFDDYAMHWVRQAPGKGLEWVSGISWNYGSIGYADSVKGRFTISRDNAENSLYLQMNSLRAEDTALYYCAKVEREGGYFDYWGQGTLVTVSS showed no signal (0 of 3 replicates).
Variant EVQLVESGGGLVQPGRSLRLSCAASGFTFDDYAMHWVRQAPGKGLEWVSRISWNSGSIGYADSVKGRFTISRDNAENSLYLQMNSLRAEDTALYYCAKVGRNGGYFDEWGQGTLVTVSS showed no signal (0 of 3 replicates).
Variant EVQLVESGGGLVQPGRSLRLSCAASGFTFDDYAMHWVRQAPGKGLEWVSGIDWNTGSIGYFDSVKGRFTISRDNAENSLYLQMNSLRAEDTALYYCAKVGRGGGYFDYWGQGTLVTVSS showed no signal (0 of 3 replicates).
Variant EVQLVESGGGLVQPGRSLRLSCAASGFTFDDYAMHWVRQAPGKGLEWVSVISWNSGSIGYADSVKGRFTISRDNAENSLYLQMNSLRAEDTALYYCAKVDRGGGYSDYWGQGTLVTVSS showed no signal (0 of 3 replicates).
Variant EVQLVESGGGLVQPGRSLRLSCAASGFTFQDYHMHWVRQAPGKGLEWVSGISGNSGSIGYADSVKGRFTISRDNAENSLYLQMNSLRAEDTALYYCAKVGRGGGYFDYWGQGTLVTVSS showed no signal (0 of 3 replicates).
Variant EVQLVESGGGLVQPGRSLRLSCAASGFTFDDYAMHWVRQAPGKGLEWVSGISCNSGPIGYADSVKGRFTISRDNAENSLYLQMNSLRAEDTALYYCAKVGSGGGYFDYWGQGTLVTVSS showed no signal (0 of 3 replicates).

As a blank, each scFv also met three strains without target: over library AAYL51, 21% of these pairings were detected, typically at 4.54 and seldom below 3.26.
Parent in this assay: reference entry 1.86, copy in this library 0.88.